The record followed here is ChEMBL document CHEMBL5058646 (2022).

Settings in all cases: SUD4
The target of experiment [1] is T1, Zinc finger and BTB domain-containing protein 9 (Homo sapiens) (UniProt Q96C00).
T1 sequence (whole entry): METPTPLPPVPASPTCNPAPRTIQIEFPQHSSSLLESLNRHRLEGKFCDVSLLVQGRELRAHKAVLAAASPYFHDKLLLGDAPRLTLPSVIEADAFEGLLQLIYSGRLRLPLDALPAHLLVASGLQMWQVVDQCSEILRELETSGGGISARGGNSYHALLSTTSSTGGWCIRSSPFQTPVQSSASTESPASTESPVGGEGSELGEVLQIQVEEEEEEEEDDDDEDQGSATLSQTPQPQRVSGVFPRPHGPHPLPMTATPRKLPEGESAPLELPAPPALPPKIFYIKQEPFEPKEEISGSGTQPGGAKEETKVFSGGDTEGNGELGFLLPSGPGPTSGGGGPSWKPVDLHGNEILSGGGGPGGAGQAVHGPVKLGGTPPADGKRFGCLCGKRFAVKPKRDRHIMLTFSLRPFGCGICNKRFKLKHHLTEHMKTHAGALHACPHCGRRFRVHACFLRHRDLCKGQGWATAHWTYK

Experiment [2] deals with T2, Zinc finger and BTB domain-containing protein 14 (Homo sapiens) (UniProt O43829).
T2 sequence (whole entry): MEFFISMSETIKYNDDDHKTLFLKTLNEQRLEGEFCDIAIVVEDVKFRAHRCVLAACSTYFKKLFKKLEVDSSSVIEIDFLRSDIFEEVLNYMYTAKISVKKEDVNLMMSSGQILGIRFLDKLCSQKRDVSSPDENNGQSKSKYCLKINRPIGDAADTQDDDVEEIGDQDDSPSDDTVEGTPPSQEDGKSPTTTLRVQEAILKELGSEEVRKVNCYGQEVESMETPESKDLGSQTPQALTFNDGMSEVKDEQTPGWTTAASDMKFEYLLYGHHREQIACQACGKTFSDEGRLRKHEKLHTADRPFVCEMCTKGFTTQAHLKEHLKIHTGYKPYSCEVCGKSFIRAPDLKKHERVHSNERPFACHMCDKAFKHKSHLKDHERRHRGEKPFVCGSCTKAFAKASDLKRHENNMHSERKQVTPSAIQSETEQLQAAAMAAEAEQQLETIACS

In experiment [3] the target is T3, Zinc finger and BTB domain-containing protein 44 (Homo sapiens) (UniProt Q8NCP5).
T3 sequence (whole entry): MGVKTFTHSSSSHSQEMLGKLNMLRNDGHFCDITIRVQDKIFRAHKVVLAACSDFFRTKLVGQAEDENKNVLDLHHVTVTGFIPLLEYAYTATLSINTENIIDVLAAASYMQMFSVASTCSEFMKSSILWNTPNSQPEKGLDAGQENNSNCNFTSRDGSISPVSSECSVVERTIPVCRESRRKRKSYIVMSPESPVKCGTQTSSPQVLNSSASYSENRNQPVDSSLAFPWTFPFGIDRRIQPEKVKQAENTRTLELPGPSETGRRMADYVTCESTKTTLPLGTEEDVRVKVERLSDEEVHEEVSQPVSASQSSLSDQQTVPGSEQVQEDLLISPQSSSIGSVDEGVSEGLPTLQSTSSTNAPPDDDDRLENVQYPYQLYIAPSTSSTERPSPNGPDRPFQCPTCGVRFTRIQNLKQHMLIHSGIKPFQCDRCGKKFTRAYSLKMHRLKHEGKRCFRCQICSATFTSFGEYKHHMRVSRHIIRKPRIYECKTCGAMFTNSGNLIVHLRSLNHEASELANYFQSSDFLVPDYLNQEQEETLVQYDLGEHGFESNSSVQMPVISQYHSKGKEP

The target of experiment [4] is T2, Zinc finger and BTB domain-containing protein 14 (Homo sapiens). This is another data set of the same source.
Experiment [5] addresses T1, Zinc finger and BTB domain-containing protein 9 (Homo sapiens). This is another data set of the same source.

On to `C[C@@H]1CN(c2ncc(Cl)c(Nc3ccc4c(c3)n(CCC(C)(C)O)c(=O)n4C)n2)C[C@H](C)C1(F)F`, for which the Normalized abundances for DMSO in experiment [1] is 964; in experiment [2] it was 351; in experiment [3], 565; in experiment [4], 354; in experiment [5], 942. The Normalized abundances for compound in experiment [1] was 950; in experiment [2] it was 372; in experiment [3], 480; in experiment [4], 362; in experiment [5] it was 1000.
